Assay results: PMC8704648 (Pharmaceutics, 2021)

How the values were obtained:
[1] = shake flask
[2] = for Log(Ks): from pKs = pKA + pKB − pKw; for pKa of the Acid: pKa determined for the L-proline alkyl ester (cation) of the salt; for Percent Salt Formed: predicted degree of salt formation from log(Ks)
[3] = after 24 h of penetration, mean ± SD, n = 3

L-proline propyl ester naproxenate [[ProOPr][NAP]]
logP, n-octanol-water partition coefficient [1]: 0.987 ± 0.0189
Log(Ks) [2]: 5.80
pKa of the Acid [2]: 9.95
Percent Salt Formed [2]: >99%
mass accumulated in porcine skin [3]: 650.62 ± 69.83

L-proline ethyl ester naproxenate [[ProOEt][NAP]]
logP, n-octanol-water partition coefficient [1]: 0.898 ± 0.0148
Log(Ks) [2]: 5.48
pKa of the Acid [2]: 9.63
pKs ([2]; pKs = pKA + pKB − pKw): −5.48

L-proline butyl ester naproxenate [[ProOBu][NAP]]
logP, n-octanol-water partition coefficient [1]: 1.094 ± 0.0218
Log(Ks) [2]: 5.82
pKa of the Acid [2]: 9.97
Percent Salt Formed [2]: >99%

L-proline isopropyl ester naproxenate [[ProOiPr][NAP]]
logP, n-octanol-water partition coefficient [1]: 0.921 ± 0.0373
Log(Ks) [2]: 5.60
pKa of the Acid [2]: 9.75
Percent Salt Formed [2]: >99%
mass accumulated in porcine skin [3]: 768.06 ± 81.05
